Data as given in PubChem BioAssay AID1345082 (National Center for Advancing Translational Sciences (NCATS), 2018).
The list shows a part of the results, in another mix than the full data. Results filed as inconclusive are left out. Activity calls are given as the source filed them. Calls come from the whole dose curve; as a rule, active = well fitted inhibition curve with a large enough effect; inconclusive = small, poorly fitted or top-dose-only effect; inactive = no such curve, though single readings can be large or run the other way.

Experiment: Cytotoxic Profiling in NIH 3T3 Cell Line of Diverse Libraries Using Quantitative High-Throughput Screening; note: nearly all actives have a fitted effect of over 55% in size
Settings: NIH 3T3 viability, CellTiter-Glo ATP luminescence, 48-72 h; at 174 µM (top of the series) unless noted
Excerpt: Cell-based phenotypic screening is a commonly used approach to discover biological pathways, novel drug targets, chemical probes and high-quality hit-to-lead molecules. Many hits identified from high-throughput screening campaign are ruled out through a series of follow-up potency, selectivity/specificity, and cytotoxicity assays. Prioritization of molecules with little or no cytotoxicity for a more in-depth downstream evaluation influence the future direction of projects, so cytotoxicity profiling of the screening libraries at early stage is essential for increasing the likelihood of candidate success. In this study, we analyzed results from a cell-based cytotoxicity screening campaign, comprising nearly 10,000 compounds in NCATS annotated libraries, and over 100,000 compounds in a diversity library, evaluated in four normal cell lines (HEK 293, NIH 3T3, CRL-7250 and HaCat) and a cancer cell line (KB 3-1, a HeLa subline) with overall screening outcomes, hit rates, pan-activity and selectivity. […]
NIH 3T3 cells were seeded into white 1536-well plates using a Multidrop Combi peristaltic dispenser (ThermoFisher, Waltham, MA) at a density of 400 cells/well in 5 uL of medium respectively. […] Plates were left at room temperature for 10 min before imaging the ATP-coupled luminescence using a ViewLux microplate imager (PerkinElmer, Waltham, MA).
% is set by controls: 0 for no effect and ±100 for the full control effect.

Row | Compound | activity change, negative = cytotoxicity
1 | CNCc1cc2ccccc2o1 | inactive: -5.69% [at 138 µM]
2 | CNCc1cccc(C)n1 | inactive: 1.37%
